Reference: patent publication US20240139185A1, “COMPOUNDS THAT PARTICIPATE IN COOPERATIVE BINDING AND USES THEREOF” (Revolution Medicines, Inc., priority 2018, published 2024)

The chains behind the UniProt entries cited, without tags or fusion partners. Residues count along the entry.
UniProt P62937, whole entry: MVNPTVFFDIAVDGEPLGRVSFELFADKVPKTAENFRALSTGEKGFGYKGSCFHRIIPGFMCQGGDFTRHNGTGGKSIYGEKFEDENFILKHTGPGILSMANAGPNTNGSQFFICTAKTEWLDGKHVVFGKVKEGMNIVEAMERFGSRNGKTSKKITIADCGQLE
UniProt P01116, 1-169 isoform 2 G12C limits assumed: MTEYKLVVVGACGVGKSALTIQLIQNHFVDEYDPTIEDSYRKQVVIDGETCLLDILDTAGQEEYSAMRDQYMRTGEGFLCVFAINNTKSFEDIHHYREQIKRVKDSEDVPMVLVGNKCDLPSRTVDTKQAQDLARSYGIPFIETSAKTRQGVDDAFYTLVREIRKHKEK

Columns and labels:
cyclophilin A (CYPA) = cyclophilin A (CYPA) (Homo sapiens, UniProt P62937); assay: CYPA-compound binary complex formation by SPR; conditions: read-out: CYPA Binding Affinity
Procedure, shortened: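 CypA-Avi captured on a Biotin CAPture chip (4 μg/ml), reference flow cell subtracted. Compounds injected as 10-point 2-fold dilutions from 50 μM in HBS-P+ pH7.4 with 2% DMSO; 60 s association and 60 s dissociation, solvent-corrected. Affinity obtained by steady-state fitting.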

[1] = biological target: BRAF-GTP-KRAS-G12C complex (Homo sapiens, UniProt P01116, G12C); assay: KRAS-BRAF complex disruption TR-FRET without CYPA (presenter dependence); conditions: read-out: BRAF-GTP-KRAS-G12C complex disruption without CYPA (IC50)
Method: In this example, TR-FRET was used to measure the compound-facilitated disruption of a KRAS-BRAF complex. A mixture of tagless Cyclophilin A, His6-KRAS G12C-GMP-PNP, and GST-BRAF RAS binding domain was added to a 384-well assay plate containing compounds of the invention and incubated for 3 hours. A mixture of Anti-His Eu-W1024 and anti-GST allophycocyanin was then added and the reaction was incubated for an additional 1.5 hours. TR-FRET signal was read on an EnVision microplate reader (Perkin Elmer, Ex 320 nm, Em 665/615 nm). Compounds that facilitate disruption of a KRAS_BRAF complex were identified as those eliciting a decrease in the TR-FRET ratio relative to DMSO control wells. To determine the presenter-dependence of the compound-mediated KRAS-BRAF complex disruption, Cyclophilin A was left out of the initial incubation (see Table 5). To determine G12C specificity of the compound-mediated KRAS-BRAF complex disruption, wild-type KRAS was used instead of G12C KRAS (see Table 5). […]
Experimental Protocol • 1. Use Mosquito to dispense 100 nL/well of compounds (varying concentration in […]) into 384-well black ProxiPlate to make assay-ready-plate (ARP). • 2. […] Read on EnVision (Ex: 320 nm; Em1: 615 nm; Em2: 665 nm). • 8. […]

Row | Compound | Kd (cyclophilin A (CYPA)) | IC50 [1]
1 | CC(C)[C@@H](C(=O)N[C@H]1Cc2cc(O)cc(c2)-c2ccc3c(c2)N(C[C@H](C)COC(=O)[C@@H]2CCCN(N2)C1=O)CC3(C)/C=C/C#N)N(C)C(=O)C1CN(C(=O)CCl)C1 (single isomer, unassigned) [221] | < 5 µM | > 30 µM
2 | CC(C)[C@@H](C(=O)N[C@H]1Cc2cc(O)cc(c2)-c2ccc3c(c2)n(c(=O)n3C2CC2)C[C@H](C)COC(=O)[C@@H]2CCCN(N2)C1=O)N(C)C(=O)C1CN(C(=O)CCl)C1 | 5 to 15 µM | > 30 µM
